The test system of data set [1] is MDA-MB-231-RFP non-necrotic tumors (~0.5 cm^3). As to the kind of experiment: In-vivo whole body NIR fluorescence imaging of drug up-take in primary non-necrotic MDA-MB-231-RFP xenograft tumors. The settings on record: post injection.
Data set [2] relates to orthotopic human breast MDA-MB-231-RFP primary tumor, necrotic (~1 cm^3). As to the kind of experiment: In-vivo whole body NIR fluorescence imaging of drug up-take in primary necrotic MDA-MB-231-RFP xenograft tumors. The settings on record: 15 mg/kg i.v.; days 1-7 post injection.

Consider “Palladium 3^1-oxo-15-methoxycarbonyl-methyl-Rhodobacteriochlorin 13^1-(2-sulfoethyl)amide-17^3-c(RGDfK)amide potassium salt [compound 24]”, for which the “complete drug clearance by that time” value in data set [1] is listed as at most 2 days. In addition, the “clearance from the liver in the following days” value in data set [2] is “no complete clearance”.

These data come from patent publication US8815213B2, “RGD-(bacterio)chlorophyll conjugates for photodynamic therapy and Imaging of Necrotic tumors” (Yeda Research and Development Co. Ltd., priority 2008, dated 2014).
